Test results taken from ChEMBL document CHEMBL5113448, “Synthesis and biological evaluation of 4H-benzo[e][1,3]oxazin-4-ones analogues of TGX-221 as inhibitors of PI3Kβ” (Bioorg Med Chem, 2022).
pIC50: −log10 of the molar value.

Chains of the proteins cited; added tags and fusions are not shown. Lines headed by an entry give the natural chain unless they say otherwise; changes in a name come on top.
UniProt P42338: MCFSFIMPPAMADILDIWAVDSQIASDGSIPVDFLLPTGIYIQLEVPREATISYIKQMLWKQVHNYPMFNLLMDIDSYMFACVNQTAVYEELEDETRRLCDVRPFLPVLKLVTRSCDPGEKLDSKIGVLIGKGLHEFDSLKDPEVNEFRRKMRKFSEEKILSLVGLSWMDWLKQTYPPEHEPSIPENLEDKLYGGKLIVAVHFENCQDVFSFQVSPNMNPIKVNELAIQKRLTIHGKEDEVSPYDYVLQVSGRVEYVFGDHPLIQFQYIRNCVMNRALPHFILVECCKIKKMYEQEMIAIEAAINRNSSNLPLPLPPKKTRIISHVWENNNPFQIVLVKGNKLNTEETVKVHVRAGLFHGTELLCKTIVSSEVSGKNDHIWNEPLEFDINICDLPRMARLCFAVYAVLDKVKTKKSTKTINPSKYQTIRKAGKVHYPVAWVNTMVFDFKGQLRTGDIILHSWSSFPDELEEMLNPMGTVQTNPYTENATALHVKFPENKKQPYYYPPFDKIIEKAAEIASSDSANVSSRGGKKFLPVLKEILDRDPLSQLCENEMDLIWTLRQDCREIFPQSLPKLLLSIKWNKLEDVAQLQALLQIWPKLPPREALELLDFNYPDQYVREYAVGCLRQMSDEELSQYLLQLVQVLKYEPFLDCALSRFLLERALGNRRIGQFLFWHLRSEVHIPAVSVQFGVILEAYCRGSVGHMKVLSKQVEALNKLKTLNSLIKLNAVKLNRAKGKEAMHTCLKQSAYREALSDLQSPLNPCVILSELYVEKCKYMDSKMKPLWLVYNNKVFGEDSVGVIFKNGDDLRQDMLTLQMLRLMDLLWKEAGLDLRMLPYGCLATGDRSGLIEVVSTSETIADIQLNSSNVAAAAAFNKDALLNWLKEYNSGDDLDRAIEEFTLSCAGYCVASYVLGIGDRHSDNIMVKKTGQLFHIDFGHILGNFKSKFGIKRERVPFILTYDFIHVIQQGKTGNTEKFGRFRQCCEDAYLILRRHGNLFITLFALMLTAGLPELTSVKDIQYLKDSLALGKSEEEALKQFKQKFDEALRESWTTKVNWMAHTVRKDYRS

Biological target: Phosphatidylinositol 4,5-bisphosphate 3-kinase catalytic subunit beta isoform (Homo sapiens, UniProt P42338)
Assay: Inhibition of PI3Kbeta (unknown origin) incubated for 60 mins in the presence of ATP by Kinase-Glo luminescence assay

- pIC50: 7.19
SMILES: Cc1cc(C(C)Nc2ccccc2)c2nc(N3CCOCC3)cc(=O)n2c1 (stereo unspecified)
